{"sequences": {"note": "Amino acid sequences for entries named in this document (tags omitted). A change or cut given only in a name is not applied to a line headed by its entry.", "UniProt P33032": "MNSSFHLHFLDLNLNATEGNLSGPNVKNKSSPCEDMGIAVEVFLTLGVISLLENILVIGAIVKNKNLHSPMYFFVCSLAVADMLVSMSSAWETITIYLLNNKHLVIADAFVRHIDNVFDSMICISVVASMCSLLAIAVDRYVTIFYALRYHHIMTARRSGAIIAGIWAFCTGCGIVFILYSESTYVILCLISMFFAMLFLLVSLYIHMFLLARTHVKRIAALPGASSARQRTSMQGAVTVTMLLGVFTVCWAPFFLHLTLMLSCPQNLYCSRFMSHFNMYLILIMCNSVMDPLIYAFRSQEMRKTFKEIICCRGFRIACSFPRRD"}, "source": "patent US8815577B2", "about": "“Assay electrode having immobilized lipid/protein layers, methods of making the same and methods of using the same for luminescence test measurements” (Meso Scale Technologies, LLC, priority 2001, dated 2014)", "biological_target": "melanocortin 5 receptor (MC5) (Homo sapiens, UniProt P33032)", "conditions": "read-out: binding constant (EC50) for competition with NDP-α-MSH-TAG; 120 nM NDP-α-MSH-TAG; MC5 membranes captured on Pokeweed Mitogen"}
{"substance": "[Nle4,D-Phe7]-α-melanocyte-stimulating hormone [NDP-α-MSH]", "values": [{"measurement": "EC50", "result": 3.2, "unit": "nM"}]}
